According to PubChem BioAssay:
This is a selection; strong and weak results do not stand in their true shares. Some of the results follow. Activity calls are given as the source filed them.

Protein sequences, listed by entry. Tags and fused reporters are not part of them. Lines headed by an entry give the natural chain unless they say otherwise; changes in a name come on top.
UniProt P22629, whole entry, looked up: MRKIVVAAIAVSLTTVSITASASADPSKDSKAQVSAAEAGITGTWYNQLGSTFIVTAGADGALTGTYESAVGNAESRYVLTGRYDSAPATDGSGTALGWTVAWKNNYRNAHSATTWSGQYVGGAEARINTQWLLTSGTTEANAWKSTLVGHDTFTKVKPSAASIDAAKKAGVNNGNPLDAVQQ
UniProt O14656: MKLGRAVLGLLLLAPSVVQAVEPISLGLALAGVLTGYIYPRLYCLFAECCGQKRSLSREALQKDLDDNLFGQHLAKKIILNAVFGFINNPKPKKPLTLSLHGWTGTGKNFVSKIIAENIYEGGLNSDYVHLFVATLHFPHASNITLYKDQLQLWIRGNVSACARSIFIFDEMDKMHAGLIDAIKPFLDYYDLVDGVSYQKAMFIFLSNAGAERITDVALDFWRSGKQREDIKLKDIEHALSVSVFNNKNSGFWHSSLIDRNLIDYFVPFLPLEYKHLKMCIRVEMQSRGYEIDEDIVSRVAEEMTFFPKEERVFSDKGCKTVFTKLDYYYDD
UniProt P04839: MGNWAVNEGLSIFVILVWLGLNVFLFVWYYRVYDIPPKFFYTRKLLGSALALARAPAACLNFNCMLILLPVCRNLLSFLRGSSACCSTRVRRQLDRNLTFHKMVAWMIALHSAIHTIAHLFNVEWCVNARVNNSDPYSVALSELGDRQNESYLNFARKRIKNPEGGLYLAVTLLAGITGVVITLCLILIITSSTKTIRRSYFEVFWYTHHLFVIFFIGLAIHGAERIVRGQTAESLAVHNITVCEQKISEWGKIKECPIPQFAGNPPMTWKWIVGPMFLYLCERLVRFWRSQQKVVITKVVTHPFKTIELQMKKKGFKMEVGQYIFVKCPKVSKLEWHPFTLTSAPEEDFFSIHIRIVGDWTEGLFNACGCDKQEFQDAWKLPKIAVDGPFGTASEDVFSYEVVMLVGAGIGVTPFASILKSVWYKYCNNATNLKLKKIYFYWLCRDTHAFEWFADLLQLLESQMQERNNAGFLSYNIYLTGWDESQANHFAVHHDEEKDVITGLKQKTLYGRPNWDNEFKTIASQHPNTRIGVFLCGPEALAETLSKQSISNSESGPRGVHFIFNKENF
UniProt Q9NPH5: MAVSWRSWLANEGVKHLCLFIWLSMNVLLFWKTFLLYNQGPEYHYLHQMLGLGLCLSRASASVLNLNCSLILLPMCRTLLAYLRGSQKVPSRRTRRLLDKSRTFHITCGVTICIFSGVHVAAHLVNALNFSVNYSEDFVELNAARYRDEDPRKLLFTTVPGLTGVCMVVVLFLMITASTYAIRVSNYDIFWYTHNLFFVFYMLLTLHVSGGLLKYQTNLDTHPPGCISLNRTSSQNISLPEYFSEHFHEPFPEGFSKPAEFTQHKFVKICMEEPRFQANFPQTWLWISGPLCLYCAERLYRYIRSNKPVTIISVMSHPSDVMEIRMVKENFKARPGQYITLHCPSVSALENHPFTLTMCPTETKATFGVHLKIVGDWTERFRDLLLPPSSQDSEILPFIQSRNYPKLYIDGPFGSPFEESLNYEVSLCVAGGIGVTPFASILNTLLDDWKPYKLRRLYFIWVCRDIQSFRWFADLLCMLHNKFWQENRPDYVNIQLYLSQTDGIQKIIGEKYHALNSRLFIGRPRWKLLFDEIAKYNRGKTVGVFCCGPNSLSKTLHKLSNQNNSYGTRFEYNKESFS
UniProt Q96PH1: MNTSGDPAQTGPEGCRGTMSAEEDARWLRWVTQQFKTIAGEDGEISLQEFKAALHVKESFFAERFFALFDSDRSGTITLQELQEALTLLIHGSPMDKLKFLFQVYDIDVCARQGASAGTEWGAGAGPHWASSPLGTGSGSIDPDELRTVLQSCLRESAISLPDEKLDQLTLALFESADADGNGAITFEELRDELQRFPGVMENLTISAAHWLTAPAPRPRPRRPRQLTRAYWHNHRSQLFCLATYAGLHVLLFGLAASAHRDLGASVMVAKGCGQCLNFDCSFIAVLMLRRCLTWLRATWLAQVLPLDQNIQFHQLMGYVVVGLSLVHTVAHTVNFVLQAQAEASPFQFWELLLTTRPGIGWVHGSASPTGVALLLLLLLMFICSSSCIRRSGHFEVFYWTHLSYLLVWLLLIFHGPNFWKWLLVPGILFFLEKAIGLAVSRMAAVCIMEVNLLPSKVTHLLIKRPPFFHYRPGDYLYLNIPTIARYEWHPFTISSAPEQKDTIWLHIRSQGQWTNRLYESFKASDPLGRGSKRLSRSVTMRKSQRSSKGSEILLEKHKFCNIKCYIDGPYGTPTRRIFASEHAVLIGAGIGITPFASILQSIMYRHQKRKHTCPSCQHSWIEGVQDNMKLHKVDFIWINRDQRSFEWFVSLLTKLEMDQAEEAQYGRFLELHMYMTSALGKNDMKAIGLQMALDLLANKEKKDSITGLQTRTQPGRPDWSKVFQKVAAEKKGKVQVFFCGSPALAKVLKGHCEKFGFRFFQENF

Assays:
Lefty1 = Lefty1 protein binding to printed compounds – biochemical, small-molecule microarray, 635/667 nm fluorescence, primary screen (AID 1139); details: fluorescence 635/667, higher = more signal
[1] = system: wheat germ agglutinin (Triticum aestivum), Alexa647-labelled; assay: Alexa647-WGA lectin binding to printed small molecules – biochemical, small-molecule microarray, 635/667 nm fluorescence, artefact control for SMM control-protein annotation, profiling panel (AID 1140); details: WGA-A647 binding, 635 nm fluorescence, higher = more signal;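 also: score merges 667 nm feature emission with signal to noise over triplicate slides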
[2] = system: Wnt5a (protein binding on small-molecule microarray); assay: small molecules binding Wnt5a protein – biophysical, small-molecule microarray, 635/667 nm fluorescence, primary screen (AID 1142); details: 635 nm fluorescence, higher = more signal;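 also: fluorescence read at 667 nm with signal to noise per printed feature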
[3] = ATP-based viability of Huh7 replicon cells – cell-based, CellTiter-Glo luminescence, basal, 48 h, cytotoxicity control for HCV replication inhibitor project, primary screen (AID 1143); details: higher = more signal, called active from +8 up or from −8 down;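 also: Huh7 hepatoma cells carrying a hepatitis C replication reporter with no stimulus; test concentration not given here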
[4] = forskolin-driven CRE-LacZ activity in PC12 – cell-based, CRE-LacZ reporter, forskolin-stimulated, primary screen (AID 1146); details: luminescence, 4.5 h, higher = more signal, called active from +8 up or from −8 down;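 also: PC12 cells with 6xCRE LacZ reporter stimulated by forskolin 10 µM; beta-galactosidase reporter signal reflecting CREB driven transcription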
[5] = target: Streptavidin (Streptomyces avidinii) (UniProt P22629); assay: compounds binding control protein streptavidin – biophysical, small-molecule microarray, 635/667 nm fluorescence, artefact control for SMM compound annotation, primary screen (AID 1147); details: higher = more signal;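 also: signal reflects streptavidin binding to arrayed compounds as a control protein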
[6] = probe aInhba binding on compound microarray – biochemical, small-molecule microarray, 635/667 nm fluorescence, primary screen (AID 1148); details: higher = more signal;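 also: score merges 667nm spot fluorescence with signal-to-noise for antibody binding to printed compounds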
Torsin-1A (Homo sapiens) [7] = target: Torsin-1A (Homo sapiens) (UniProt O14656); assay: TOR1A wild-type binding on microarray – cell lysate, small-molecule microarray, lysate, 635/667 nm, primary screen (AID 1149); details: COS7 hTOR1A-WT lysate, 635 nm fluorescence, higher = more signal
Torsin-1A (Homo sapiens) [8] = target: Torsin-1A (Homo sapiens) (UniProt O14656); assay: torsin A mutant lysate binding on microarrays – cell lysate, small-molecule microarray, COS7 lysate, 635/667 nm fluorescence, primary screen (AID 1150); details: COS7 hTOR1A mutant lysate, 635 nm fluorescence, higher = more signal;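 also: score pools 667 nm emission and signal to noise measuring lysate protein binding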
[9] = system: Sonic hedgehog protein (Shh); assay: Sonic hedgehog microarray binding compounds – biochemical, small-molecule microarray, 635/667 nm fluorescence, primary screen (AID 1151); details: 635 nm fluorescence, higher = more signal;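 also: Shh protein binding to compounds spotted on small-molecule microarray slides; score combines spot fluorescence intensity with signal-to-noise across triplicate slides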
[10] = probe aLefty1 binding on compound microarray – biochemical, small-molecule microarray, 635/667 nm fluorescence, primary screen (AID 1153); details: higher = more signal;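 also: score merges spot fluorescence with signal-to-noise ratio from the scanned slide images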
[11] = changes in parasitized red cell lysis, either direction – P. falciparum Indochina, OD700, 3 h, PSAC antagonist project, primary screen (AID 1156); details: P. falciparum-infected erythrocytes, osmotic lysis, higher = more signal, called active from +8 up or from −8 down
[12] = plasmodial surface anion channel blockers, osmotic lysis – cell-based, P. falciparum Indochina, OD700, 18 h, primary screen (AID 1157); details: P. falciparum Indochina infected erythrocytes, osmotic lysis OD700, 18 h; higher = more signal, called active from +8 up or from −8 down
[13] = S6 kinase pathway phospho-S6 level changes – cell-based, A549, cytoblot, luminescence, serum-stimulated, primary screen (AID 1158); details: 5 h, higher = more signal;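 also: serum-stimulated A549 lung adenocarcinoma cells; signal is phosphorylated S6 detected by cytoblot immunostaining with HRP secondary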
[14] = target: NADPH oxidase 2 (Homo sapiens) (UniProt P04839); assay: compounds shifting NOX2 Amplex Red fluorescence – cell-based, HEK293-NOX2, PMA-stimulated, NOX inhibitor project, primary screen (AID 1159); details: 45 min, higher = more signal, called active from +8 up or from −8 down; also: test concentration not given here
[15] = target: NADPH oxidase 4 (Homo sapiens) (UniProt Q9NPH5); assay: compounds shifting NOX4 Amplex Red fluorescence – cell-based, HEK293-NOX4, tetracycline-induced, NOX inhibitor project, primary screen (AID 1160); details: HEK293-NOX4, Amplex Red H2O2 fluorescence, 45 min; higher = more signal, called active from +8 up or from −8 down
[16] = target: NADPH oxidase 5 (Homo sapiens) (UniProt Q96PH1); assay: compounds shifting NOX5 Amplex Red fluorescence – cell-based, HEK293-NOX5, NOX inhibitor project, primary screen (AID 1161); details: HEK293-NOX5, ionomycin, 45 min, higher = more signal
[17] = compound effects on lung adenocarcinoma cell viability – A549, calcein-AM fluorescence, 48 h, basal, profiling panel (AID 1162); details: higher = more signal; also: test concentration not given here
[18] = compound effects on differentiated 3T3-L1 adipocyte viability – cell-based, 3T3-L1 adipocytes, calcein-AM fluorescence, 48 h, basal, profiling panel (AID 1163); details: 3T3-L1 adipocytes viability, higher = more signal; also: test concentration not given here
[19] = compound effects on hepatocellular carcinoma cell viability – HepG2, calcein-AM fluorescence, 48 h, basal, profiling panel (AID 1164); details: higher = more signal; also: test concentration not given here

Row | SMILES | composite z-score (Lefty1) | composite z-score [1] | composite z-score [2] | z-score [3] | z-score [4] | composite z-score [5] | composite z-score [6] | composite z-score (Torsin-1A (Homo sapiens) [7]) | composite z-score (Torsin-1A (Homo sapiens) [8]) | composite z-score [9] | composite z-score [10] | z-score [11] | z-score [12] | z-score [13] | z-score [14] | z-score [15] | z-score [16] | z-score [17] | z-score [18] | z-score [19]
1 | COP(=O)(/N=C1/CC(CCCO)=CC(C2CC2)N1Cc1sc2ccccc2c1Cl)OC (stereo not given) | 1.02 | 1.39 | 0.564 | inactive: -2.38 | inactive: -1.27 | 2.21 | 1.23 | 0.279 | 0.0571 | 0.3 | 1.72 | inactive: 1.11 | inactive: 1.17 | 0.312 | inactive: 1.32 | inactive: 0.706 | 0.34 | 0.894 | 0.549 | 1.56
2 | COP(=O)(/N=C1/CC(c2ccc(CO)cc2)=CC(c2cccs2)N1C)OC (stereo not given) | 0.919 | 0.303 | 0.143 | inactive: -0.536 | inactive: -0.58 | 0.699 | 0.317 | -0.555 | 0.153 | 0.642 | 0.568 | inactive: 0.104 | inactive: 0.355 | 0.682 | inactive: 0.0747 | inactive: -0.362 | -0.0548 | 0.721 | 0.609 | 1.28
3 | COP(=O)(/N=C1/CC(CCCO)=CC(c2ccc(CN3CCCC3)cc2)N1Cc1cc2c(cc1Br)OCO2)OC (stereo not given) | 0.963 | 0.807 | 0.386 | inactive: -1.81 | inactive: -1.8 | 0.481 | 0.362 | 0.792 | 0.668 | 0.953 | 0.614 | inactive: 0.375 | inactive: -1.46 | 0.529 | inactive: 0.877 | inactive: 1.78 | 1.09 | 1.23 | 0.968 | 0.607
4 | O=P(/N=C1/CC(CCCO)=CC(C2CC2)N1Cc1sc2ccccc2c1Cl)(Oc1ccccc1)Oc1ccccc1 (stereo not given) | 0.191 | 1.02 | 0.0755 | inactive: -2.78 | inactive: -0.258 | 1.71 | 0.0471 | -0.487 | 0.774 | 0.0009 | 0.0547 | inactive: 0.294 | inactive: 0.77 | -0.126 | inactive: -0.0663 | inactive: -0.111 | 1.74 | -1.19 | 0.109 | 1.01
5 | CN1/C(=N\P(=O)(Oc2ccccc2)Oc2ccccc2)CC(CCCO)=CC1c1ccc(CN2CCCC2)cc1 (stereo not given) | 0.594 | 0.799 | 0.501 | inactive: -0.375 | inactive: -0.098 | 1.29 | 0.111 | 0.338 | 0.905 | 0.459 | -0.0362 | inactive: 0.16 | inactive: -0.017 | 0.249 | inactive: -1.92 | inactive: -1.86 | -0.425 | -0.3 | 0.026 | -1.1
6 | COP(=O)(/N=C1/CC(c2ccc(CO)cc2)=CC(C2CC2)N1Cc1cc2c(cc1Br)OCO2)OC (stereo not given) | 0.848 | 0.126 | 0.312 | inactive: -2.61 | inactive: -1.59 | 0.758 | 0.288 | 1.65 | 0.628 | 1.27 | 0.77 | inactive: 0.681 | inactive: -0.85 | 1.69 | inactive: 1.4 | inactive: 0.601 | 0.513 | 1.18 | 1.25 | 1.34
7 | COP(=O)(/N=C1/CC(CCCO)=CC(C2CC2)N1Cc1cc2c(cc1Br)OCO2)OC (stereo not given) | 0.0617 | 0.652 | 0.0865 | inactive: -1.34 | inactive: 0.0116 | 1.29 | 0.0697 | 1.81 | 1.45 | 0.532 | 0.415 | inactive: 0.779 | inactive: -0.485 | 2.8 | inactive: -1.16 | inactive: -0.223 | -0.529 | 1.79 | 1.3 | 0.933
8 | CN1/C(=N\P(=O)(Oc2ccccc2)Oc2ccccc2)CC(CCCO)=CC1C1CC1 (stereo not given) | -0.104 | 0.198 | 0.309 | inactive: -1.78 | inactive: -0.0649 | 1.77 | 0.228 | -0.354 | -0.175 | -0.138 | 0.159 | inactive: 0.252 | inactive: -2.47 | 1.77 | inactive: 0.0706 | inactive: -0.19 | 0.575 | 0.615 | 0.0619 | 0.0325
9 | O=P(/N=C1/CC(CCCO)=CC(C2CC2)N1Cc1cc2c(cc1Br)OCO2)(Oc1ccccc1)Oc1ccccc1 (stereo not given) | -0.294 | 1.06 | -0.205 | inactive: -2.82 | inactive: 0.515 | 1.23 | -0.0695 | 1.51 | 1.44 | -0.609 | 0.345 | inactive: 0.368 | inactive: 0.626 | 0.118 | inactive: -0.312 | inactive: -0.406 | -0.393 | -0.525 | 0.171 | -1.17
10 | COP(=O)(/N=C1/CC(CCCO)=CC(c2cccs2)N1C)OC (stereo not given) | 1.55 | 1.25 | 0.335 | inactive: -1.46 | inactive: -2.39 | 1.21 | 0.5 | 0.621 | 0.531 | 1.51 | 0.0842 | inactive: -0.724 | inactive: -1.85 | 0.287 | inactive: 0.577 | inactive: 0.893 | 1.81 | 1.6 | -0.461 | 0.22
11 | O=P(/N=C1/CC(CCCO)=CC(c2cccs2)N1Cc1cc2c(cc1Br)OCO2)(Oc1ccccc1)Oc1ccccc1 (stereo not given) | 0.552 | 1.03 | 0.0756 | inactive: -1.75 | inactive: 0.59 | 2 | 0.174 | 0.354 | 0.715 | 0.142 | 0.304 | inactive: 0.881 | inactive: 0.941 | -0.352 | inactive: 0.708 | inactive: -0.377 | 0.241 | -0.389 | 0.0465 | 0.433
12 | COP(=O)(/N=C1/CC(CCCO)=CC(C2CC2)N1C)OC (stereo not given) | -0.0188 | 0.264 | 0.18 | inactive: -0.79 | inactive: -1.16 | 0.53 | -0.008 | 0.899 | 0.321 | 0.506 | -0.509 | inactive: -0.451 | inactive: -2.51 | 2.98 | inactive: -0.919 | inactive: -0.495 | -0.0774 | 1.1 | 1.15 | 0.994
13 | COP(=O)(/N=C1/CC(CCCO)=CC(c2ccc(CN3CCCC3)cc2)N1Cc1sc2ccccc2c1Cl)OC (stereo not given) | 1.7 | 0.401 | 0.413 | inactive: -1.87 | inactive: -1.62 | 0.772 | 0.767 | 0.581 | 0.95 | 1.64 | 0.956 | inactive: 1.53 | inactive: 0.723 | -0.46 | inactive: 0.236 | inactive: 0.949 | -0.255 | 1.62 | -0.0171 | 1.29
14 | CN1/C(=N\P(=O)(Oc2ccccc2)Oc2ccccc2)CC(CCCO)=CC1c1cccs1 (stereo not given) | 0.529 | 1.41 | 0.322 | inactive: -0.15 | inactive: -0.0216 | 0.778 | 0.0173 | 0.378 | 0.161 | 0.836 | 0.051 | inactive: 1.74 | inactive: 0.355 | 0.764 | inactive: -1.08 | inactive: -0.234 | -0.236 | -0.53 | 1.08 | -0.35
15 | O=P(/N=C1/CC(c2ccc(CO)cc2)=CC(C2CC2)N1Cc1cc2c(cc1Br)OCO2)(Oc1ccccc1)Oc1ccccc1 (stereo not given) | 0.168 | 1.21 | 0.652 | inactive: -4 | inactive: -0.0864 | 1.93 | 0.0442 | 0.191 | 1.63 | 0.111 | 0.0654 | inactive: -0.768 | inactive: 0.672 | 0.0935 | inactive: -0.0846 | inactive: 0.371 | 0.798 | -0.634 | 0.972 | -0.554
